Assay results published in ChEMBL document CHEMBL5727553.
This is a selection: effects in other tests are not listed, and their absence says nothing.

The chains behind the UniProt entries cited, without tags or fusion partners. Residues count along the entry.
UniProt P54289, 25-956 limits assumed: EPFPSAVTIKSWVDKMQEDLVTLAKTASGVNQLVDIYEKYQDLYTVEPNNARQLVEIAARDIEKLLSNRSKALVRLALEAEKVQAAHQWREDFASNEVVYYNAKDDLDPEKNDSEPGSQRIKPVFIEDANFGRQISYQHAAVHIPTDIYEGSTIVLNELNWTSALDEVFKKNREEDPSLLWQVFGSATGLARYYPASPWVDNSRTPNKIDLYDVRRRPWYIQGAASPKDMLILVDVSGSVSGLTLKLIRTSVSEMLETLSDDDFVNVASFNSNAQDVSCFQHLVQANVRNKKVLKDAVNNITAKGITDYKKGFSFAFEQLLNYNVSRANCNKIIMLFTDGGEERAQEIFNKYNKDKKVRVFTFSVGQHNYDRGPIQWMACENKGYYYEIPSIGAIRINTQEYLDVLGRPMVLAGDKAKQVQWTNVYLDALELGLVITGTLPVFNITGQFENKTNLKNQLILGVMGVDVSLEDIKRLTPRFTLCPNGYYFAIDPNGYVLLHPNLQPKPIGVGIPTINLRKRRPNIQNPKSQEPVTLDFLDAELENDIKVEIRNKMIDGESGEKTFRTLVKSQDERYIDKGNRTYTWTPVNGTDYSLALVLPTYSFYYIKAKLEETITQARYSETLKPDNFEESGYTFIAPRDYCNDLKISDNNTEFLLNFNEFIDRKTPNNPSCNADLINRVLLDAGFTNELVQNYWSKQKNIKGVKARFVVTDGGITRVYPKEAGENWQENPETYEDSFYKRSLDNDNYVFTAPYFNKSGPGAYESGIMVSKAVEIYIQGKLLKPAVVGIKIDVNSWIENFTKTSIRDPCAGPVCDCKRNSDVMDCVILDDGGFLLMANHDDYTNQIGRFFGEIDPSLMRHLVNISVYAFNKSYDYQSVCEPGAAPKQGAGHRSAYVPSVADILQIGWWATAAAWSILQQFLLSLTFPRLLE
UniProt P54289, 957-1103 limits assumed: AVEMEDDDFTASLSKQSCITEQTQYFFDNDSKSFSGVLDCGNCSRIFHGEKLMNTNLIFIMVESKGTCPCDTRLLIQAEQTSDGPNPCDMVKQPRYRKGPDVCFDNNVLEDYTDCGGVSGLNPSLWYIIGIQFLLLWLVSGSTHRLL

Target: Voltage-dependent calcium channel subunit alpha-2/delta-1 (Homo sapiens, UniProt P54289)

`O=C(c1cccs1)N(c1cn(-c2ccc(F)cc2)nn1)C1CCN(Cc2ccccc2)CC1` was tested, and the Ki was greater than 5 µM.
